Laboratory results as given in patent publication US9346769B2, “Tetrazolones as inhibitors of fatty acid synthase” (Infinity Pharmaceuticals, Inc., priority 2010, dated 2016).

Sequences of proteins named here, by UniProt entry; tags and fusion partners are left off.
UniProt P49327, whole entry: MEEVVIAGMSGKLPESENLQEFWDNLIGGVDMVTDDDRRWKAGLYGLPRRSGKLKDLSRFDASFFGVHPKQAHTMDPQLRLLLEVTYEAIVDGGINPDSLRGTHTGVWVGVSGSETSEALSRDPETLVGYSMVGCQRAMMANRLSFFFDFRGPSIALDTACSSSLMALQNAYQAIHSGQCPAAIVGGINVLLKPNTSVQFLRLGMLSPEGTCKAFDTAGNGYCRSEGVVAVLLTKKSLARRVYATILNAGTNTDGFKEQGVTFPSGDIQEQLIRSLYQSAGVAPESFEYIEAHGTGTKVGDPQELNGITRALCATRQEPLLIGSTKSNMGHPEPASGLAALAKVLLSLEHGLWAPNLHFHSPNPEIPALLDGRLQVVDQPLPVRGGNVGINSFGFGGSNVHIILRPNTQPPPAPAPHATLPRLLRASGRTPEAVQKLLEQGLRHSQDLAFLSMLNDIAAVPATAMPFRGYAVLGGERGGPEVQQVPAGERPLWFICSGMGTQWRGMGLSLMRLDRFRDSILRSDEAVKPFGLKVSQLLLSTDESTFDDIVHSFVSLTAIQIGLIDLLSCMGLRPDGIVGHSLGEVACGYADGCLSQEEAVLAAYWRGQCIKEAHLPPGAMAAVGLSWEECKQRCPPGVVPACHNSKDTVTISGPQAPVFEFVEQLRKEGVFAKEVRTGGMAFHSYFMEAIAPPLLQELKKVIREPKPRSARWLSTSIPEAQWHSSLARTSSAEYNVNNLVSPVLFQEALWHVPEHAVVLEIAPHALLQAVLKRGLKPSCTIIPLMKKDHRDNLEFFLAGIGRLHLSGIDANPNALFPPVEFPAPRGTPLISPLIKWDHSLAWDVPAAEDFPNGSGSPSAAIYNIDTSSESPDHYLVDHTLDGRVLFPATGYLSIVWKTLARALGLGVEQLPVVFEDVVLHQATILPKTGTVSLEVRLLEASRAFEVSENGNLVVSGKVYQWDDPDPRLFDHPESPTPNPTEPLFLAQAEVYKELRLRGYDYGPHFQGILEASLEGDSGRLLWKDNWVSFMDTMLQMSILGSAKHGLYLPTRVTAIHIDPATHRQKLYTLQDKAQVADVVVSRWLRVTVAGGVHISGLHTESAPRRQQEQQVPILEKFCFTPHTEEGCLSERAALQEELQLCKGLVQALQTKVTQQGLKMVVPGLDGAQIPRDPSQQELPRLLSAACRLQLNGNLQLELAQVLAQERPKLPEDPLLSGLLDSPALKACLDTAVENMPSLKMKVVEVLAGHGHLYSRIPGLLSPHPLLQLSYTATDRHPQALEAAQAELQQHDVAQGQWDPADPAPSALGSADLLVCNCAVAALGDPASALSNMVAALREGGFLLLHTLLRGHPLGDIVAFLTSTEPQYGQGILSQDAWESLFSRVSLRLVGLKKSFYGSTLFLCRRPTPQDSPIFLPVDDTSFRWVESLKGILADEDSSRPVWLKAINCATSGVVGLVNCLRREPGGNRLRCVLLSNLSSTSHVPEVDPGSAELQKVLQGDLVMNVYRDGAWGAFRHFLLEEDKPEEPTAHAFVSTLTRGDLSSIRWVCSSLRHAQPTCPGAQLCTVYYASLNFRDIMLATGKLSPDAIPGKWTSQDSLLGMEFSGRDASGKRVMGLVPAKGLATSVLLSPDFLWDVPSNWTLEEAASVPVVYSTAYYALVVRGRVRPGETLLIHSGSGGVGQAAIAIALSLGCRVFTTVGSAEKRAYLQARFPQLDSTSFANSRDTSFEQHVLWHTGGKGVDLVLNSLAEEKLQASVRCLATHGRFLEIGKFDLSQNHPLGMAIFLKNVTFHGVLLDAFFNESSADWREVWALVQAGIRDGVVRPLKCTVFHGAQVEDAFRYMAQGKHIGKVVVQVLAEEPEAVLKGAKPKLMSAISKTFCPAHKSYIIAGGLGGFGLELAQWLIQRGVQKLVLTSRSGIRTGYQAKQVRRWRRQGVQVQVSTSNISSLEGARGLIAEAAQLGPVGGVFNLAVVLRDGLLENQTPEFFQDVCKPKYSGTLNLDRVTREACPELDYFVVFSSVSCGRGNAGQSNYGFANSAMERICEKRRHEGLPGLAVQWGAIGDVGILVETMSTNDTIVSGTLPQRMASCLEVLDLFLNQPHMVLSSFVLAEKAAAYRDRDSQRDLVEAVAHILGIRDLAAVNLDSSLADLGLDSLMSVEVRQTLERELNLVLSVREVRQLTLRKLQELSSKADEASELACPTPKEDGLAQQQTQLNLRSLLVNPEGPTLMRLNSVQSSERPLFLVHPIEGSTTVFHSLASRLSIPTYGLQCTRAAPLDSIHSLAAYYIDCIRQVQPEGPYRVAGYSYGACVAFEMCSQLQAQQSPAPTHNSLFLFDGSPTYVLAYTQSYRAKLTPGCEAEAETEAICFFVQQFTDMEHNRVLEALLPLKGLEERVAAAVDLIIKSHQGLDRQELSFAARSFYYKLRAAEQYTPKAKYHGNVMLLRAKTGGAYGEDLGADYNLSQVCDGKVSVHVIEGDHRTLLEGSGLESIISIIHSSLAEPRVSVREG

Experiments:
[1] = molecular target: T1, human FASN (Homo sapiens, UniProt P49327); assay: FASN NADPH Consumption Assay; conditions: read-out: ACTIVITY (IC50, FASN NADPH Consumption Assay, starred); human FASN purified from SKBR3 cells; starred symbols
Procedure: (§1) Human FASN protein (SEQ ID NO. 1) was purified from SKBR3 cells using procedures modified from those in Jayakumar et al. PNAS 1995, 92:8695-8699. SKBR3 cells were obtained from ATCC and grown in DMEM high glucose medium supplemented with 10% FBS, 1 μg/mL bovine pancreas insulin, 100 U/mL penicillin and 100 µg/mL streptomycin. The confluent cells were trypsinized and washed three times with PBS buffer before frozen in liquid N2 and stored at −80° C. Frozen cells were thawed on ice and resuspended in lysis buffer (25 mM Tris-HCl, pH 7.0, 15 mM NaCl, 1 mM EDTA, and 1 mM DTT) with protease inhibitors. […] Each fraction was analyzed by SDS-PAGE and FASN NADPH consumption assay. […]
All chemicals were purchased from Sigma (St. Louis, Mo.). […] NADPH consumption was monitored kinetically by fluorescence (λEx=340 nm, λEm=460 nm) on an EnVision 2100 multilabel plate reader (Perkin Elmer, Waltham, Mass.). FASN enzyme activity (slope) in the presence of 4% DMSO was used as maximum control, whereas background (minimum control) was measured by omission of malonyl-CoA in the substrate mixture. […]
Compounds were assayed as inhibitors of human FASN using the above-described FASN Scintillation Proximity Flashplate Assay (IC50; nM) or FASN NADPH Consumption Assay (*) (IC50; nM). The corresponding activity of the isolated compound is also provided along with the measured mass (ES^+).

[2] = molecular target: T1, human FASN; assay: FASN Scintillation Proximity Flashplate Assay; conditions: read-out: ACTIVITY (IC50, FASN Scintillation Proximity Flashplate Assay); human FASN purified from SKBR3 cells; unstarred symbols
Procedure: as §1, with “inhibitors. The cells were lysed by sonication, and the cell debris was removed by centrifugation at 20,000 rpm for 30 min.” for “inhibitors.”
Acetyl-coenzyme A, malonyl-coenzyme A, NADPH, bovine gamma globulin, and ORLISTAT were purchased from Sigma (St. Louis, Mo.). […] The plates were read in a Wallac 1450 Microbeta Plus liquid scintillation counter (Perkin Elmer, Waltham, Mass.), and counts per minute (CPM) were collected over 2 min. Each inhibitor well CPM was compared to the maximum FASN enzyme activity (Max) CPM and the background (Min) CPM, as measured by omission of FASN enzyme in the background well. % Inhibition values were calculated, and curves were fitted by a four-parameter logistic function to yield IC50 values: […]

IC50 [1] | IC50 [2] | SMILES
250 to 1000 nM |  | N#CCN(C(=O)n1nnn(-c2c(F)cccc2F)c1=O)c1ccccc1
 | < 15 nM | CCN(C(=O)n1nnn(-c2c(F)cccc2F)c1=O)c1ccc(NC(=O)CCCCCNC(=O)CCCC[C@@H]2SC[C@@H]3NC(=O)N[C@@H]32)cc1F
